Measurements: US11872282B2 (priority 2015, dated 2024)

Tested on: recurrent partially platinum sensitive or resistant epithelial ovarian, primary peritoneal or fallopian tube cancers
Experiment: Phase 3, randomized, double-blind trial of weekly paclitaxel plus AMG 386 (2XCon4(C)) or placebo (NCT01204749)
Conditions: in vivo

Compound: CC(=O)O[C@H]1C(=O)[C@@]2(C)[C@H]([C@H](OC(=O)c3ccccc3)[C@]3(O)C[C@H](OC(=O)[C@H](O)[C@@H](NC(=O)c4ccccc4)c4ccccc4)C(C)=C1C3(C)C)[C@]1(OC(C)=O)CO[C@@H]1C[C@@H]2O [paclitaxel alone, paclitaxel]
- time to second subsequent therapy (TSST): 11.7 months
